ChEMBL document CHEMBL1153299, “Carbonic anhydrase activators: activation of the beta-carbonic anhydrase Nce103 from the yeast Saccharomyces cerevisiae with amines and amino acids” (Bioorg Med Chem Lett, 2009)

Columns and labels:
[1] = test system: Methanothermobacter thermautotrophicus; experiment: Activation of Methanothermobacter thermautotrophicus recombinant Cab by stopped-flow CO2 hydrase method
[2] = biological target: T1, Carbonic anhydrase (Saccharomyces cerevisiae S288c) (UniProt P53615); experiment: Activation of yeast recombinant CA by stopped-flow CO2 hydrase method
T1 sequence (whole entry): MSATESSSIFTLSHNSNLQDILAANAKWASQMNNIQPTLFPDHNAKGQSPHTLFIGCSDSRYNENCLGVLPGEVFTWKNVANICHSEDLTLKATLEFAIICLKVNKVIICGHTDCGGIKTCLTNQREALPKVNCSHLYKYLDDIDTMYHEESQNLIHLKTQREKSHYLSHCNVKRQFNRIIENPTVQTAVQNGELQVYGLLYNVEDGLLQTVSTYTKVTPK
In short: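 Yeast Nce103 gene PCR-amplified from genomic DNA and expressed in E. coli BL21(DE3), then purified. Activator and enzyme preincubated 15 min at room temperature. Stopped-flow CO2 hydration at 25 °C, 20 mM Tris pH 8.3, 20 mM NaClO4, 0.2 mM phenol red read at 557 nm over 10 s, CO2 1.7–17 mM. Initial rates taken from at least six traces, uncatalyzed rate subtracted. KA fitted from catalytic enhancement versus activator concentration; mean of three determinations.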

| Structure (SMILES) | Ka [1] | Ka [2] |
| --- | --- | --- |
| N[C@@H](Cc1ccccc1)C(=O)O | 70 µM | 86 µM |
| N[C@H](Cc1ccccc1)C(=O)O | 10.3 µM | 86 µM |
